# Ab-14 heavy chain CDR variants: yeast mating affinities

Data: MIT Lincoln Laboratory AlphaSeq set, Li et al. 2023, doi:10.1038/s41467-023-39022-2, as distributed in FLAb.

Binding partner: SARS-CoV-2 spike HR2 peptide, sequence PDVDLGDISGINAS.

Ab-14 is the parent antibody, in scFv form: VH, then three GGGGS repeats, then VL. The light chain is unchanged in all variants.
VH: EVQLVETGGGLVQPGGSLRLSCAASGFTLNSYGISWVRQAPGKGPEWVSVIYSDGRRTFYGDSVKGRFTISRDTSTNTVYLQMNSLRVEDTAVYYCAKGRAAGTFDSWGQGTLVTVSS
VL: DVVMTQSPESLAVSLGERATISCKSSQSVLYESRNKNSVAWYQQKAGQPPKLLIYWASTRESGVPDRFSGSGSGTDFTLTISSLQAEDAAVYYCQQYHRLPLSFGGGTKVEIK

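Phage display of a naive human antibody library on the peptide gave the parent. These sequences belong to a second round, designed from the earlier measurements on random variants of the parent. Their group label is 14H_En_HC (En: ensemble of fine-tuned language models; HC: hill climbing; a sequence that several methods proposed may carry one label only). AlphaSeq pools MATa yeast showing the antibodies with MATalpha yeast showing the peptide. Pairs that bind mate more often; barcode pairs of the diploids are counted by sequencing. A regression on co-assayed BCL2-family reference pairs converts the normalised counts of each replicate to an apparent Kd. Each pool was mated in six replicate cultures.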

The parent's heavy chain CDRs are GFTLNSYGIS, VIYSDGRRTFYGDSVK, GRAAGTFDS; each variant's own CDRs replace them letter for letter. Scale: log10 of Kd in nM, estimated from mating counts; low values are strong binders. Averages over replicates are reported, and they cover detected replicates only. "n.d." marks a missing value. The strain was present, yet no cells mated with the target were sequenced in that replicate, which points to weak or no binding. The authors averaged sequences with at least three values out of six and counted those with two or fewer as poor binders. A sequence measured in both rounds can read differently, since the two assays cover different ranges. As a blank, each scFv also met three strains without target: over all heavy chain designs, 1% of these pairings were detected, typically at 2.08 and seldom below 0.84. The control count says in how many pairings with the empty strains this scFv gave a signal, with their mean in brackets.

| CDR-H1 | CDR-H2 | CDR-H3 | log10 Kd, replicates | mean, log10 nM | control signals |
|---|---|---|---|---|---|
| GFDLNEYGIS | VIYADGRRTFYSDSVK | GTVAGTFDI | -0.55 -0.36 -0.38 -0.91 -0.42 -0.19 | -0.47 | 0 of 18 |
| GFDLNEYGIS | VIYADGRRSFYADSVK | GNNAGTFDV | -0.63 -0.65 -0.61 -0.56 -0.53 -0.16 | -0.52 | 2 of 18 (2.20) |
| GFDLNEYGIS | VIYADGVRTFYSDSVK | GQNAGTFDV | -0.30 -0.31 -0.60 -0.67 -0.40 -0.54 | -0.47 | 0 of 18 |
| GFDLNEYGIS | VIYADGVRTFYVDSVK | GETAGTFEM | -0.14 -0.36 -0.30 -0.49 -0.53 -0.41 | -0.37 | 0 of 18 |
| GFNLNEYGIS | VIYADGRRTFYADSVK | GNVAGTFDV | 0.68 n.d. -0.91 n.d. -0.35 -0.48 | -0.27 | 0 of 18 |
| GFNLEDYGIS | VIYADGRRTFYQDSVK | GKVAGTFDV | -0.35 -0.52 -0.48 -0.53 -0.44 -0.28 | -0.43 | 1 of 18 (3.22) |
| GFTLDEYGIS | VIYADGRRTFYADSVK | GEVAGTFDI | -0.17 -0.21 -0.46 -0.23 -0.73 -0.22 | -0.34 | 0 of 18 |
| GFDLNEYGIS | VIYADGSRTFYADSVK | GQTAGTFDV | n.d. n.d. n.d. n.d. n.d. n.d. | n.d. | 0 of 18 |
| GFDLNEYGIS | VIYADGRRTFYVDSVK | GVNAGTFDD | n.d. 2.06 1.13 1.10 3.24 1.83 | 1.87 | 0 of 18 |
| GFDLNEYGIS | VIYADGMRTFYTDSVK | GEVAGTFDT | 0.09 0.21 0.45 0.03 0.01 0.59 | 0.23 | 0 of 18 |
| GFDLDEYGIS | VIYADGRRTVYQDSVK | GQNAGTFDQ | 1.15 -0.27 -0.13 -0.30 0.20 -0.63 | 0.00 | 0 of 18 |
| GFDLNEYGIS | VIYADGRRTQYIDSVK | GEIAGTFDV | 1.25 0.38 n.d. 0.93 0.46 0.34 | 0.67 | 0 of 18 |
| GFDLNEYGIS | VIYADGRRTFYADSVK | GQTAGTFDE | 0.35 0.82 -0.19 -0.18 0.11 0.19 | 0.18 | 0 of 18 |
| GFDLDEYGIS | VIYADGRRTFYADSVK | GEEAGTFDI | -0.18 -0.82 -0.25 -0.66 -0.47 -0.46 | -0.47 | 0 of 18 |
| GFNLNEYGIS | VIYADGVRTFYADSVK | GEHAGTFDI | n.d. 0.66 1.10 -0.13 0.71 n.d. | 0.58 | 0 of 18 |
| GFNLNEYGIS | VIYADGRRTFYSDSVK | GEAAGTFDI | -0.36 -0.03 -0.39 -0.25 -0.44 -0.42 | -0.31 | 0 of 18 |
| GFDLNEYGIS | VIYADGRRTFYTDSVK | GGNAGTFDK | -0.50 -1.33 -1.14 -0.90 -0.99 -1.24 | -1.02 | 0 of 18 |
| GFDLEDYGIS | VIYADGRRTAYTDSVK | GEVAGTFDV | 0.03 -0.49 -0.33 -0.60 -0.70 -0.32 | -0.40 | 0 of 18 |
| GFDLNEYGIS | VIYADGKRTAYSDSVK | GEIAGTFDQ | 0.17 0.10 0.24 0.62 0.11 0.05 | 0.21 | 0 of 18 |
| GFDLNEYGIS | VIYADGRRTFYTDSVK | GVNAGTFDV | 0.04 -0.30 -0.44 -0.27 -0.64 -0.28 | -0.32 | 0 of 18 |
| GFDLNEYGIS | VIYADGRRTFYADSVK | GTNAGTFLV | 0.73 0.51 0.74 0.42 0.36 0.44 | 0.53 | 1 of 18 (1.67) |
| GFDLNEYGIS | VIYADGRRTFYSDSVK | GEIAGTFDN | 0.26 -0.28 -0.17 -0.53 -0.23 -0.54 | -0.25 | 0 of 18 |
| GFDLNEYGIS | VIYADGIRTAYADSVK | GETAGTFDQ | 0.22 0.29 -0.08 -0.22 -0.11 -0.05 | 0.01 | 1 of 18 (1.75) |
| GFNLNEYGIS | VIYADGRRTFYADSVK | GEIAGSFDI | -0.26 0.05 -0.40 -0.41 -0.22 -0.16 | -0.23 | 1 of 18 (1.79) |
| GFDLNEYGIS | VIYADGLRTSYDDSVK | GQNAGTFDQ | 0.50 -0.09 0.17 0.27 0.32 0.41 | 0.26 | 0 of 18 |
| GFDLNEYGIS | VIYADGRRTFYADSVK | GHAAGTFDQ | 1.31 0.35 0.70 0.48 0.67 1.03 | 0.76 | 0 of 18 |
| GFDIDEYGIS | VIYADGQRTFYADSVK | GTNAGTFDS | -0.30 -0.10 0.19 0.23 0.01 0.21 | 0.04 | 0 of 18 |
| GFDLNEYGIS | VIYADGKRTFYIDSVK | GEAAGTFDM | -0.31 -0.23 -0.56 -0.66 -0.68 -0.56 | -0.50 | 0 of 18 |
| GFDLNEYGIS | VIYADGRRTFYADSVK | GEAAGTFLM | 0.55 0.78 1.08 0.02 0.35 0.29 | 0.51 | 0 of 18 |
| GFDLNEYGIS | VIYADGRRTSYVDSVK | GVNAGTFDV | 0.00 -0.09 -0.31 -0.64 -0.55 -0.17 | -0.29 | 1 of 18 (1.93) |
| GFDLNEYGIS | VIYADGKRTQYIDSVK | GEQAGTFDV | -0.38 0.92 -0.21 -0.53 0.29 1.05 | 0.19 | 0 of 18 |
| GFDLNEYGIS | VIYADGVRTFYSDSVK | GEAAGTFDS | n.d. 1.38 n.d. 2.21 n.d. 1.23 | 1.61 | 0 of 18 |
| GFDLESYGIS | VIYADGRRTFYSDSVK | GNNAGTFDI | 0.53 0.78 0.73 0.62 0.64 0.69 | 0.67 | 1 of 18 (2.35) |
| GFNLDEYGIS | VIYADGRRTFYSDNVK | GEVAGTFDL | -0.66 0.34 -0.19 -0.23 -0.08 -0.09 | -0.15 | 0 of 18 |
| GFDLDEYGIS | VIYADGRRTFYQDSVK | GQNAGTFDI | n.d. n.d. n.d. n.d. n.d. n.d. | n.d. | 0 of 18 |
| GFDLNEYGIS | VIYADGRRTFYADSVK | GNVAGTFLS | -0.55 -0.81 -0.73 -0.93 -0.96 -0.59 | -0.76 | 1 of 18 (2.48) |
| GFNLDEYGIS | VIYADGQRTFYADSVK | GEHAGTFDT | -0.32 -0.59 -0.76 -0.87 -0.90 -0.67 | -0.69 | 0 of 18 |
| GFDLNEYGIS | VIYADGRRTFYSDSVK | GQLAGTFDA | -0.44 -0.28 -0.34 -0.71 -0.57 0.35 | -0.33 | 0 of 18 |
| GFDLNEYGIS | VIYADGRRTSYVDSVK | GENAGTFDV | 0.33 0.00 0.63 0.06 -0.05 0.27 | 0.21 | 0 of 18 |
| GFDLDEYGIS | VIYADGRRTFYKDSVK | GSNAGTFVM | n.d. n.d. n.d. n.d. n.d. n.d. | n.d. | 1 of 18 (1.92) |
| GFDLNEYGIS | VIYADGMRTFYTDSVK | GEFAGTFDF | -0.25 1.04 -0.16 n.d. 0.25 0.00 | 0.17 | 0 of 18 |
| GFDLNEYGIS | VIYADGMRTFYADSVK | GNAAGTFDS | -0.22 -0.34 -0.48 -0.57 -0.61 -0.36 | -0.43 | 2 of 18 (2.28) |
| GFDLNEYGIS | VIYADGRRTFYADKVK | GENAGTFDI | n.d. -0.66 -1.38 -0.66 -0.82 -1.26 | -0.96 | 0 of 18 |
| GFDLNEYGIS | VIYADGRRTFYADSVK | GKAAGTFDQ | -0.45 -0.76 -0.73 -0.85 -0.81 -0.66 | -0.71 | 0 of 18 |
| GFDLNEYGIS | VIYADGRRQFYADKVK | GENAGTFDV | -0.13 0.21 -0.55 -0.27 -0.21 0.26 | -0.11 | 0 of 18 |

For reference, 5 entries of the list once more:

| CDR-H1 | CDR-H2 | CDR-H3 | log10 Kd, replicates | mean, log10 nM | control signals |
|---|---|---|---|---|---|
| GFNLEDYGIS | VIYADGRRTFYQDSVK | GKVAGTFDV | -0.35 -0.52 -0.48 -0.53 -0.44 -0.28 | -0.43 | 1 of 18 (3.22) |
| GFDLNEYGIS | VIYADGVRTFYSDSVK | GQNAGTFDV | -0.30 -0.31 -0.60 -0.67 -0.40 -0.54 | -0.47 | 0 of 18 |
| GFDLNEYGIS | VIYADGRRTFYADKVK | GENAGTFDI | n.d. -0.66 -1.38 -0.66 -0.82 -1.26 | -0.96 | 0 of 18 |
| GFDLNEYGIS | VIYADGRRTFYTDSVK | GGNAGTFDK | -0.50 -1.33 -1.14 -0.90 -0.99 -1.24 | -1.02 | 0 of 18 |
| GFDLNEYGIS | VIYADGRRSFYADSVK | GNNAGTFDV | -0.63 -0.65 -0.61 -0.56 -0.53 -0.16 | -0.52 | 2 of 18 (2.20) |